# Test system: fentanyl-induced respiratory depression
# Test: Rat breathing studies with fentanyl (pneumotachometer)
# Conditions: fentanyl 25 mcg/kg IV over 30 mins; calabadion 2 100 mg/kg IV bolus, then naloxone 1 mg/kg IV bolus
smiles,measurement,value
C=CCN1CC[C@]23c4c5ccc(O)c4O[C@H]2C(=O)CC[C@@]3(O)[C@H]1C5,effect on end-tidal carbon dioxide and minute ventilation during fentanyl infusion,lower recovering effects

# From patent US9956229B2, “Acyclic cucurbit[n]uril type molecular containers to treat intoxication and decrease relapse rate in substance abuse disorders” (UNIVERSITY OF MARYLAND, COLLEGE PARK, priority 2014, dated 2018)
